Literature values as cited in patent US20260038709A1 (priority 2020, published 2026).

How the values were obtained:
[1] = prior art; cited from earlier work
[2] = prior art; cited from earlier work; remark: listed apart in the source

**Q.** For fluoroketone (C5F10O), which Boiling point [1] is on record?
**A.** 26.5 °C

**Q.** And the “Acute inhalation toxicity (LC50 4 h)” value [2]?
**A.** about 20,000 ppmv
